US7432350B2 (priority 2002, dated 2008)

Chains of the proteins cited; added tags and fusions are not shown.
UniProt Q00955, whole entry S77Y: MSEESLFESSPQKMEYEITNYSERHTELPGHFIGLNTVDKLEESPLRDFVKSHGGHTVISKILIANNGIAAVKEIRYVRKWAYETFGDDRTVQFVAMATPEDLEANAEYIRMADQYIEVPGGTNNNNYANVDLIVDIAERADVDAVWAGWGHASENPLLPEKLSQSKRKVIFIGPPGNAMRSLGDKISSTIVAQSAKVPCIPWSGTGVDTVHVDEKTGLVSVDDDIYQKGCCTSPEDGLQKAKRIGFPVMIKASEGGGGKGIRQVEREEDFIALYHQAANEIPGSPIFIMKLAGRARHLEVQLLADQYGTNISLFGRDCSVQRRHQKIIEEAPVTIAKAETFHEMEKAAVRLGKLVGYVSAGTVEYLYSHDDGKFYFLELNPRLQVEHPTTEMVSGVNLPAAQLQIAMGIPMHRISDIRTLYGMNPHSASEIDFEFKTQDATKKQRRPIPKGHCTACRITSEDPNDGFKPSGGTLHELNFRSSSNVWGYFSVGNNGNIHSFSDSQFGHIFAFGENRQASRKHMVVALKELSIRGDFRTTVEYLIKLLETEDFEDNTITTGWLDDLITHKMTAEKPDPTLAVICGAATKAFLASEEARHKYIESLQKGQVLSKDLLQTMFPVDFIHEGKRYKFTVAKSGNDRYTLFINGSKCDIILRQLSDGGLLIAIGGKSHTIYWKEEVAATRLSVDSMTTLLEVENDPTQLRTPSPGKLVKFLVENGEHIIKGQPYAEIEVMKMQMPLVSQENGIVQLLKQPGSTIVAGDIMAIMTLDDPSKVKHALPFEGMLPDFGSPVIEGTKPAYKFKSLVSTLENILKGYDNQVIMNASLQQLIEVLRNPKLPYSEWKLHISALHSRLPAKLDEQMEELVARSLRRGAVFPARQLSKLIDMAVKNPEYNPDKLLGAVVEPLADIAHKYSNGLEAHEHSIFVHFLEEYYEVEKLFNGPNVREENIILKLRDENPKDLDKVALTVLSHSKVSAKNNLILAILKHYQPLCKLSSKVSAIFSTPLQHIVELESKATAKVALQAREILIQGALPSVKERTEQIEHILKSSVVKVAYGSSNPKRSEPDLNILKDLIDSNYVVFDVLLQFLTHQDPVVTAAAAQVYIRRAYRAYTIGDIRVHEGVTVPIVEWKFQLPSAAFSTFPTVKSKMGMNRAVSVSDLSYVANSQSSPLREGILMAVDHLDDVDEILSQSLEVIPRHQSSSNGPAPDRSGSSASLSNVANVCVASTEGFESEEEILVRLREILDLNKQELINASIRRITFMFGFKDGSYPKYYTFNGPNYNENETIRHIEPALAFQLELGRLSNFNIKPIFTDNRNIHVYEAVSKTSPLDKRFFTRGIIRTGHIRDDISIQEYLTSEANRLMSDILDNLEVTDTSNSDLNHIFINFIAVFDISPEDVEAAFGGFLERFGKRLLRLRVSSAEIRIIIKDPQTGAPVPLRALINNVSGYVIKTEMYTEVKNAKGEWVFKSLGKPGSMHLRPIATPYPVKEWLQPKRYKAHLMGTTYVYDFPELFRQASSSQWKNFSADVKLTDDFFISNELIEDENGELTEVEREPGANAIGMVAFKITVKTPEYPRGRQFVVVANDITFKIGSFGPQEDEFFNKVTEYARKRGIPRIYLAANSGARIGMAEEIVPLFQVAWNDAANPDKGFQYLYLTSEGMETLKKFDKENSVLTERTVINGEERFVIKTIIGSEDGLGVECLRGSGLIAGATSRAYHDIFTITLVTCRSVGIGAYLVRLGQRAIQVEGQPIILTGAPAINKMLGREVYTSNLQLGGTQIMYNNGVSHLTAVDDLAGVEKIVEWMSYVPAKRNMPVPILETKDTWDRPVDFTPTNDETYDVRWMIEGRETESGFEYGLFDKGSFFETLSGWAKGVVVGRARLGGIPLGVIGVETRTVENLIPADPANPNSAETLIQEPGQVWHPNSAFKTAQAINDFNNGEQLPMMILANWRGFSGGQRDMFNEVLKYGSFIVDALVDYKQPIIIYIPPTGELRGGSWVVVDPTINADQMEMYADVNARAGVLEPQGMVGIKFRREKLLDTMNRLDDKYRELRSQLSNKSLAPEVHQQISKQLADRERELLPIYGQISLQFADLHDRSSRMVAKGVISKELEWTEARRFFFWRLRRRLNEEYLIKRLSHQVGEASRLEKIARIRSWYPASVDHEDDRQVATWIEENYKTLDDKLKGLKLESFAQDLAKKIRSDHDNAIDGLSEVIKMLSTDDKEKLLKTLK

How the values were obtained:
[1] = target: full-length S. cerevisiae ACCase S77Y mutant (pCS204M) (Saccharomyces cerevisiae, UniProt Q00955, S77Y)
[2] = target: pCS204M (S77Y mutant full length S. cerevisiae ACCase) (Saccharomyces cerevisiae, UniProt Q00955, S77Y); format: biochemical; conditions: for sensitivity of pCS204M protein activity to inhibition: 14C isotope exchange assay

Compound	soraphen binding by pCS204M [1]	sensitivity of pCS204M protein activity to inhibition [2]	Relative Enzymatic Activity (%), pCS204M ([2]; +1.5 ng/mL soraphen A)	Relative Enzymatic Activity (%), pCS204M ([2]; +1.5 μg/mL soraphen A)	Relative Enzymatic Activity (%), pCS204M ([2]; +150 μg/mL soraphen A)	Relative Enzymatic Activity (%), pCS204M ([2]; +250 μg/ml avidin)
CO[C@H]1CCCC[C@@H](c2ccccc2)OC(=O)[C@@H](C)[C@@]2(O)O[C@H]([C@@H](C)[C@H](O)[C@H]2OC)[C@@H](C)/C=C/[C@H]1OC [soraphen A]	comparable to the non-specific control	insensitive	103%	101%	105%	
avidin: avidin, inhibitor of the biotin-dependent ACCase activity in Table 4		sensitive				2.5%

Like-named read-outs stand apart in the source and are kept apart here.
